2 compounds from article PMC2668526 (Bioorganic & medicinal chemistry, 2008) can be followed below.

The assay has as its target T1, rat PAM (Rattus norvegicus, UniProt P14925).
T1 sequence (P14925 36-715 isoform P14925-2 limits assumed): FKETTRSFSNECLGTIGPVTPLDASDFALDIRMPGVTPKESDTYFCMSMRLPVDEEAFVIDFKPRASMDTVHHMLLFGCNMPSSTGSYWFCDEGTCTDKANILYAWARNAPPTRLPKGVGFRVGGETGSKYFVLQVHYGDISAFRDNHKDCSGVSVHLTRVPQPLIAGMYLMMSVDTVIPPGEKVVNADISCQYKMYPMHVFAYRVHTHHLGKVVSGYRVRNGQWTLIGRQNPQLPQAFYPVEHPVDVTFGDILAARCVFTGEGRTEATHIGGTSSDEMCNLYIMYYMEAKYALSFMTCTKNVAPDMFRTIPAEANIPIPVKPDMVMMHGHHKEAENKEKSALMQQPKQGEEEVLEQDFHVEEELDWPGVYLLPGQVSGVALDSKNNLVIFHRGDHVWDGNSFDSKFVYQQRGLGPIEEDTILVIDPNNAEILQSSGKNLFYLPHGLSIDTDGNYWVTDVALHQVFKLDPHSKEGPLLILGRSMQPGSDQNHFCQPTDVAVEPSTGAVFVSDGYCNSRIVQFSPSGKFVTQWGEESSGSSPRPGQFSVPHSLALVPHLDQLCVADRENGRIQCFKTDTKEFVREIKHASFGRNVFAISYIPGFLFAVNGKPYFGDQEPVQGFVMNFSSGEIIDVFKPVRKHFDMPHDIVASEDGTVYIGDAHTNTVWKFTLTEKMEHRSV
Briefly: Bifunctional rat PAM inhibition. The assay is classed as biochemical. The settings on record: Ki,s, absence of DMSO, competitive inhibition assumed.

Usually Ki stands for a dissociation constant, usually derived from enzyme kinetics or from competition with a known ligand. Read a high Ki as a looser hold on the target. `CCOC(=O)CNC(=O)[C@H](CS)NC(=O)CC[C@H](N)C(=O)O` [compound 67, Glutathione Ethyl Ester] gave an inhibitory constant (Ki) of 0.066 ± 0.008 mM.

With `O=C(O)CCC(=O)c1ccccc1` [compound 77, 3-Benzoylpropionic acid], the Ki is 2.9 mM.
